Reference: US7459457B2, “Polycyclic pyridines as potassium ion channel modulators” (Icagen, Inc., priority 2004, dated 2008)

Target: T1, hSK2 (Homo sapiens, UniProt Q9H2S1)
T1 construct: host or cells: cells expressing SK channels
Experiment: Assay for compound activity towards hSK channels (86Rb+ efflux)
Type: cell-based
Settings: 86Rb+ efflux stimulated with calcium ionophore; drug 0.01 to 30 μM in EBSS; read-out: hSK2 Inhibitory Activity
Experimental: 6.1 Assay for Compound Activity Towards hSK Channels Cells expressing small conductance, calcium activated potassium channels, such as SK-like channels were loaded with ^86Rb^+ by culture in media containing ^86RbCl. Following loading, the culture media was removed and the cells were washed in EBSS to remove residual traces of ^86Rb^+. Cells were preincubated with the drug (0.01 to 30 μM in EBSS) and then ^86Rb^+ efflux was stimulated by exposing cells to EBSS solution supplemented with a calcium ionophore, such as ionomycin, in the continued presence of the drug. After a suitable efflux period, the EBSS/ionophore solution was removed from the cells and the ^86Rb^+ content was determined by Cherenkov counting (Wallac Trilux). Cells were then lysed with a SDS solution and the ^86Rb^+ content of the lysate was determined. Percent ^86Rb^+ efflux was calculated according to the following equation: (^86Rb^+ content in EBSS/(^86Rb^+ content in EBSS+^86Rb^+ content of the lysate))×100 6.2 Results Compounds tested in this assay, along with their hSK2 inhibitory activity, are provided in Table 1.

Substance | IC50
[2,6-Bis(1H-benzimidazol-2-yl) pyridine]2 Zn(II) Complex | < 100 nM
[2,6-Bis(1H-benzimidazol-2-yl) pyridine]2 Fe(II) Complex | < 100 nM
